Counter-ions that a name gives are not always drawn.
molecular target: Human recombinant monoamine oxidase MAO-B (Homo sapiens (Human), UniProt P27338); experiment: Monoamine oxidase assay (kynuramine to 4-hydroxyquinoline fluorescence), MAO-B; assay type: biochemical; conditions: read-out: MAO-B (IC50-μM); Table 2

By UniProt entry, the sequences of proteins in these tests, tags left out.
UniProt P27338, whole entry: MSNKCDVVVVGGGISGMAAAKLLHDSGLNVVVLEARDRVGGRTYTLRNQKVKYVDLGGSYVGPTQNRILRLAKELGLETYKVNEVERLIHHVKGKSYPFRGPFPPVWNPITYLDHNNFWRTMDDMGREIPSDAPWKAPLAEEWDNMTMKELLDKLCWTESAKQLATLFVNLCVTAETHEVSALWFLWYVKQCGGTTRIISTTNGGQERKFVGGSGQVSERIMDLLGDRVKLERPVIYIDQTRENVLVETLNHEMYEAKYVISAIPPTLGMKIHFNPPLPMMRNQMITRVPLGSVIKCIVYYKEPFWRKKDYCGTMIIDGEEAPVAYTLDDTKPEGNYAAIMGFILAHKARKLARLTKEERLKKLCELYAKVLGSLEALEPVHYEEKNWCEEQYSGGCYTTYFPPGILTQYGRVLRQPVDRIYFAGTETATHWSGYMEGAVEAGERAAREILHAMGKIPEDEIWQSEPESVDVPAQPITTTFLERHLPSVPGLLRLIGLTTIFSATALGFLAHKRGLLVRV
UniProt P21397, whole entry: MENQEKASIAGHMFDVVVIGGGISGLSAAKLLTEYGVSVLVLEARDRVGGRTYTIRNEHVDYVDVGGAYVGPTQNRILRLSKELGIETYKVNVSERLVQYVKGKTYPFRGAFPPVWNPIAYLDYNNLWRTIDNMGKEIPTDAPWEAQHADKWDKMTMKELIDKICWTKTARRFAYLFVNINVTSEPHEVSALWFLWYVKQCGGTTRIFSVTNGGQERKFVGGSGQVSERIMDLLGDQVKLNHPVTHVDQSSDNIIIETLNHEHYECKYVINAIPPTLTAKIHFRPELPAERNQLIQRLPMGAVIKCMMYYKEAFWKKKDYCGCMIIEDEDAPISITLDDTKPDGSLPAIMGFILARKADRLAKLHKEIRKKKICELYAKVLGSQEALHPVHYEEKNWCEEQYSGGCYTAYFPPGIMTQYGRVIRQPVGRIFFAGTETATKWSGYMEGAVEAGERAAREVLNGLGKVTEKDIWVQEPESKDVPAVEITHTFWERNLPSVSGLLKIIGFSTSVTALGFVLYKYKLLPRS

| Structure (SMILES) | IC50 |
| --- | --- |
| NC1CCC(N[C@H]2C[C@@H]2c2cccnc2)CC1 (relative stereo) [Example 7, N1-((trans)-2-(pyridin-3-yl)cyclopropyl)cyclohexane-1,4-diamine hydrochloride] | > 100 µM |
| NC1CCC(N[C@H]2C[C@@H]2c2ccc(-c3cccc(C(F)(F)F)c3)nc2)CC1 (relative stereo) [Example 8, N1-((trans)-2-(6-(3-(trifluoromethyl)phenyl)pyridin-3-yl)cyclopropyl)cyclohexane-1,4-diamine hydrochloride] | 10.1 µM |
| OC1CCC(N[C@H]2C[C@@H]2c2ccc(-c3cccc(C(F)(F)F)c3)nc2)CC1 (relative stereo) [Example 11, 4-(((trans)-2-(6-(3-(trifluoromethyl)phenyl)pyridin-3-yl)cyclopropyl)amino)cyclohexanol] | 6.8 µM |
| NC(=O)C1CCC(N[C@H]2C[C@@H]2c2ccc(-c3cccc(C(F)(F)F)c3)nc2)CC1 (relative stereo) [Example 12, 4-(((trans)-2-(6-(3-(trifluoromethyl)phenyl)pyridin-3-yl)cyclopropyl)amino)cyclohexanecarboxamide hydrochloride] | 2.5 µM |
| CC(=O)NC1CCC(N[C@H]2C[C@@H]2c2ccc(-c3cccc(C(F)(F)F)c3)nc2)CC1 (relative stereo) [Example 13, N-(4-(((trans)-2-(6-(3-(trifluoromethyl)phenyl)pyridin-3-yl)cyclopropyl)amino)cyclohexyl)acetamide hydrochloride] | 2.45 µM |
| NC1CCCC(N[C@H]2C[C@@H]2c2ccccc2)C1 (relative stereo) [Example 18, N1-((trans)-2-phenylcyclopropyl)cyclohexane-1,3-diamine] | > 100 µM |
| CC(C)(C)OC(=O)NC1CCC(N[C@H]2C[C@@H]2c2ccccc2)CC1 (relative stereo) [Example 23, Tert-butyl (4-(((trans)-2-phenylcyclopropyl)amino)cyclohexyl) carbamate] | 46.4 µM |
| NC1CCC(N[C@H]2C[C@@H]2c2ccc(-c3ccn[nH]3)cc2)CC1 (relative stereo) [Example 43, N1-((trans)-2-(4-(1H-pyrazol-5-yl)phenyl)cyclopropyl)cyclohexane-1,4-diamine] | > 100 µM |
| NC1CCC(N[C@H]2C[C@@H]2c2ccc(-c3cccc(O)c3)s2)CC1 (relative stereo) [Example 44, 3-(5-((trans)-2-((4-aminocyclohexyl)amino)cyclopropyl)thiophen-2-yl)phenol] | 2.04 µM |
| NC1CCC(NC2CC2c2ccc(F)c(F)c2)CC1 (centres unmarked) [Example 32, N1-(2-(3,4-difluorophenyl)cyclopropyl)cyclohexane-1,4-diamine] | > 100 µM |
| Nc1ccc(S(=O)(=O)Nc2cccc(-c3ccc([C@H]4C[C@@H]4NC4CCC(N)CC4)cc3)c2)cn1 (some centres unmarked) [Example 51] | ~100 µM |

molecular target: Human recombinant monoamine oxidase MAO-A (Homo sapiens (Human), UniProt P21397); experiment: Monoamine oxidase assay (kynuramine to 4-hydroxyquinoline fluorescence), MAO-A; assay type: biochemical; conditions: read-out: MAO-A (IC50-μM); Table 2

| Structure (SMILES) | IC50 |
| --- | --- |
| NC1CCC(N[C@H]2C[C@@H]2c2ccc(-c3cccc(C(F)(F)F)c3)nc2)CC1 (relative stereo) [Example 8, N1-((trans)-2-(6-(3-(trifluoromethyl)phenyl)pyridin-3-yl)cyclopropyl)cyclohexane-1,4-diamine hydrochloride] | > 100 µM |
| NC1CCC(N[C@H]2C[C@@H]2c2ccc(-c3cccc(C(F)(F)F)c3)cc2)CC1 (relative stereo) [Example 9, N1-((trans)-2-(3′-(trifluoromethyl)-[1,1′-biphenyl]-4-yl)cyclopropyl)cyclohexane-1,4-diamine hydrochloride] | ~50 µM |
| NC1CCC(N[C@H]2C[C@@H]2c2ccc(OCc3ccccc3)cc2)CC1 (relative stereo) [Example 10, N1-((trans)-2-(4-(benzyloxy)phenyl)cyclopropyl)cyclohexane-1,4-diamine hydrochloride] | 1.64 µM |
| OC1CCC(N[C@H]2C[C@@H]2c2ccc(-c3cccc(C(F)(F)F)c3)nc2)CC1 (relative stereo) [Example 11, 4-(((trans)-2-(6-(3-(trifluoromethyl)phenyl)pyridin-3-yl)cyclopropyl)amino)cyclohexanol] | 32 µM |
| NC(=O)C1CCC(N[C@H]2C[C@@H]2c2ccc(-c3cccc(C(F)(F)F)c3)nc2)CC1 (relative stereo) [Example 12, 4-(((trans)-2-(6-(3-(trifluoromethyl)phenyl)pyridin-3-yl)cyclopropyl)amino)cyclohexanecarboxamide hydrochloride] | 25.2 µM |
| NC1CC(N[C@H]2C[C@@H]2c2ccccc2)c2ccccc21 (relative stereo) [Example 20, N1-((trans)-2-phenylcyclopropyl)-2,3-dihydro-1H-indene-1,3-diamine] | > 100 µM |
| NC1CCC(N[C@H]2C[C@@H]2c2ccc(C3CC3)cc2)CC1 (relative stereo) [Example 40, N1-((trans)-2-(4-cylopropylphenyl)cyclopropyl)cyclohexane-1,4-diamine] | > 100 µM |
| NC1CCC(N[C@H]2C[C@@H]2c2cnc(-c3cccc(O)c3)s2)CC1 (relative stereo) [Example 45, 3-(5-((trans)-2-((4-aminocyclohexyl)amino)cyclopropyl)thiazol-2-yl)phenol] | 29.5 µM |
| N[C@@H]1CCN(C2CCC(N[C@H]3C[C@@H]3c3ccccc3)CC2)C1 (stereo in doubt) [Example 15, (R)-1-(4-(((trans)-2-phenylcyclopropyl)amino)cyclohexyl)pyrrolidin-3-amine trihydrochloride] | > 100 µM |
| COc1ccc(C2CC2NC2CCC(N)CC2)cc1 (centres unmarked) [Example 29, N1-(2-(4-methoxyphenyl)cyclopropyl)cyclohexane-1,4-diamine] | > 100 µM |
| NC1CCC(NC2CC2c2ccc(O)cc2)CC1 (centres unmarked) [Example 30, 4-(2-((4-aminocyclohexyl)amino)cyclopropyl)phenol] | > 100 µM |
| N[C@H]1CC[C@@H](N[C@H]2C[C@@H]2c2ccc(-c3cccc(C(F)(F)F)c3)cc2)CC1 [Example 36, (Cis)-N1-((1S,2R)-2-(3′-(trifluoromethyl)-[1,1′-biphenyl]-4-yl)cyclopropyl)cyclohexane-1,4-diamine] | 10.7 µM |
| N[C@H]1CC[C@H](N[C@H]2C[C@@H]2c2ccc(-c3cccc(C(F)(F)F)c3)cc2)CC1 [Example 37, (Trans)-N1-((1S,2R)-2-(3′-(trifluoromethyl)-[1,1′-biphenyl]-4-yl)cyclo-propyl)cyclohexane-1,4-diamine] | 14.6 µM |
| N[C@H]1CC[C@@H](N[C@@H]2C[C@H]2c2ccc(-c3cccc(C(F)(F)F)c3)cc2)CC1 [Example 38, (Cis)-N1-((1R,2S)-2-(3′-(trifluoromethyl)-[1,1′-biphenyl]-4-yl)cyclo-propyl)cyclohexane-1,4-diamine] | 26.8 µM |
| N[C@H]1CC[C@H](N[C@@H]2C[C@H]2c2ccc(-c3cccc(C(F)(F)F)c3)cc2)CC1 [Example 39, (Trans)-N1-((1R,2S)-2-(3′-(trifluoromethyl)-[1,1′-biphenyl]-4-yl)cyclo-propyl)cyclohexane-1,4-diamine] | 26.3 µM |
